# Experimental data as given in patent US20230128137A1, “BENZO FIVE-MEMBERED CYCLIC COMPOUND” (MEDSHINE DISCOVERY INC., priority 2020, published 2023).
# Test: in vitro
# Conditions: human, human liver microsomes
smiles,measurement,value
O=C(O)Cc1ccccc1Nc1c(Cl)cccc1Cl [Diclofenac],CLint scaled at 1 µM,309 mL/min/kg
